This note sets out measurements from PubChem BioAssay (Tox21).

This is a selection; strong and weak results do not stand in their true shares. Inconclusive results are not listed. Calls of active or inactive are those of the source. Calls follow the shape of the full dose curve.
% is scaled to controls: 0 for no effect and ±100 for the full control effect.

The test has as its target Beta-2 adrenergic receptor (Homo sapiens) (UniProt P07550). Kind of test: Adrenergic beta2 receptor (ADRB2) small molecule agonists, cell-based qHTS assay (AID 1963593). To be noted: CHO-ADRB2 cells, cAMP HTRF, 30 min; at 92.4 µM (top of the series) unless noted. The text has this:
National Center for Advancing Translational Sciences [NCATS]
Division of Preclinical Innovation [DPI]
U.S. Environmental Protection Agency [EPA]
National Institutes of Environmental Health Sciences [NIEHS]
National Toxicology Program [NTP]
U.S. Food and Drug Administration [FDA]
Beta adrenergic receptors (Beta-ARs) belong to the G-protein coupled receptor (GPCR) superfamily, includes three subtypes - beta1, beta2, and beta3. Beta1-AR is the predominant receptor subtype expressed in the heart, and beta2-AR is expressed in the kidney, lung, blood vessel and in the heart, and beta3 is found in the adipocytes. Beta1 and 2 ARs couple to Gs protein and elevate cyclic adenosine mono phosphate (cAMP), which activates protein kinase A and leads to the downstream signaling responsible for the physiological actions. Beta-AR agonists or antagonists are the most prescribed therapeutic agents for heart failure and asthma, and these were one of the first target receptors for the rational drug design. Tox21 10K compound library was screened using the cAMP-Gs dynamic assay (Cisbio Bioassays, Shelton, CT) to identify agonists/antagonists of the Gs-coupled human adrenergic, beta2 receptor (ADRB2) in the CHO-ADRB2 cell line (Codex BioSolutions, Inc. Gaithersburg, MD), which stably over-expresses ADRB2. The principle of cAMP-Gs dynamic assay is based on HTRF technology, which facilitates the fluorescence resonance energy transfer (FRET) between donor Europium cryptate and acceptor d2-labeled cAMP. The cAMP generated within cells competes with the red acceptor, d2-labled cAMP, for binding to the monoclonal anti-cAMP-cryptate (Europium donor). An increase in intracellular cAMP leads to the disruption of FRET signal, and the signal is inversely proportional to the cAMP concentration. Isoproterenol HCl (Sigma-Aldrich, St. Louis, MO) was used as a positive control in the screening.
Tox21 Assay Protocol Summary:
CHO-ADRB2 cells were dispensed at 1,000/well in 4uL assay medium into white/solid 1536-well plates (Greiner Bio-One North America Inc., Monroe, NC) using a Multidrop Combi dispenser (ThermoFisher Scientific, Waltham, MA). The assay plates were incubated at 37C and 5% CO2 for an overnight (18-20hr). Then positive control and test compounds dissolved in DMSO were transferred to the assay plates at 23nL using a Pintool station (Wako, San Diego, CA). Following the compound and positive control transfer, 1uL stimulation mix containing 100uM IBMX and 25uM Ro-20-1724 was added to each well of the assay plates using BioRAPTR Flying Reagent Dispenser (FRD, Beckman Coulter, Brea, CA). The assay plates were incubated at room temperature for 0.5hr. Then 2.5ul each d2-labled cAMP and anti-cAMP-cryptate solutions were added separately to each well of the assay plates using an FRD and the assay plates were incubated at room temperature for 1hr.
In general terms: Quantitative high-throughput screening tests each substance at several concentrations.
On to `CCOC(=O)Cl`, for which the activation is inactive: 15%.
For the compound `COC(=O)Cl`, the activation was inactive: 7.88%.
For `CC(C)OP(=S)(OC(C)C)SCCNS(=O)(=O)c1ccccc1`, the activation was inactive: -1.16%.
The value for `NC(=O)Nc1ccc([As](=O)(O)O)cc1` was inactive: 2.08% [at 42.5 µM]; that for `O=[P+](Oc1ccccc1)Oc1ccccc1` was inactive: 7.75%.
Consider `O=P(Cl)(Oc1ccccc1)Oc1ccccc1`, for which the activation was inactive: 7.75%.
The value for `O=P(Cl)(Cl)c1ccccc1` was inactive: 20.3%.
Turning to `CCCCOP(OCCCC)OCCCC`, the activation is inactive: 12.3%.
Regarding `CCCCC(CC)CO[P+](=O)OCC(CC)CCCC` (stereo unspecified), the activation is inactive: -9.51%.
Take `CCOP(=S)(CC)Sc1ccccc1` (stereo unspecified): the activation was inactive: 0.928%.
`COP(=S)(Cl)OC`: the activation was inactive: 21.2%.
With `CCCCO[P+](=O)OCCCC`, the activation was inactive: 21.5%.
On to `CCCCCCCCCCCCCC[P+](CCCCCC)(CCCCCC)CCCCCC`, for which the activation was inactive: 14.6%.
The value for `ClP(Cl)c1ccccc1` was inactive: 20.3%.
With `CC(C)CCCCCCCOP(OCCCCCCCC(C)C)Oc1ccccc1`, the activation was inactive: 5.82%.
Consider `O=C(Cl)Oc1ccccc1`, for which the activation is inactive: 20.7%.
